ChEMBL document CHEMBL1255346 (2008)

System: Serratia marcescens
Details: isolate S1 to S21

With GENTAMICIN the MIC was 0.5 µg/mL.
